AlphaSeq binding of Ab-14 heavy chain variants to a spike HR2 peptide

The measurements come from Li et al. 2023 (doi:10.1038/s41467-023-39022-2) through the FLAb antibody collection.

Binding partner: SARS-CoV-2 spike HR2 peptide, sequence PDVDLGDISGINAS.

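The parent was found by panning a naive human phage display library on the peptide. The variants were designed computationally from a first round of random CDR variants and then made and measured. Their group label is 14H_GP_Gibbs (GP: Gaussian process model; Gibbs: Gibbs sampling; a sequence that several methods proposed may carry one label only). The scFvs were displayed on barcoded MATa yeast, the peptide on MATalpha yeast. Mating (16 h, 30 °C) was followed by selection of diploids and sequencing of their barcodes. Read counts were normalised to the haploid input and turned into Kd by a linear fit to BCL2-family pairs of known affinity, for each replicate. There are six technical replicates.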

Each scFv is VH, the linker GGGGSGGGGSGGGGS, VL, as in the parent Ab-14, and differs from it in the CDRs of the heavy chain only.
VH: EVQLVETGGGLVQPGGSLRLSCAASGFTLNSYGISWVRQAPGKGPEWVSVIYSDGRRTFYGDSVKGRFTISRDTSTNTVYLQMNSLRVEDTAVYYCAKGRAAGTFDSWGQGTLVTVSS
VL: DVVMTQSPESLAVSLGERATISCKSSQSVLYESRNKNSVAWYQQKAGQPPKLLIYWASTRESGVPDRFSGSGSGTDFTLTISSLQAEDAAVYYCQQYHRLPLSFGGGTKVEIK

Sequences are complete VH domains. Scale: log10 of Kd in nM, estimated from mating counts; low values are strong binders. "ND" means that the variant was in the library but no mating with the target was seen in that replicate; the authors take this as a sign of poor binding, and no number exists. Background: pairings of all heavy chain designs with three empty control strains gave a value in 1% of cases (median 2.08, 5th percentile 0.84). Values in that range, when seen in few replicates, are hard to tell from nonspecific mating. Also given: how often the same scFv was detected with the empty control strains, with their mean in brackets. The authors' rule: three or more of the six replicates give a measured affinity, fewer mean a poor binder. Values of this round are not directly comparable with the first-round values of the same sequences. Of ten entries with the parent sequence, four were seen in most replicates (averages 0.34 to 2.37), three in one and three in none, so single entries are noisy.

{"VH": "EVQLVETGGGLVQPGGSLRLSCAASGFTLNEYGISWVRQAPGKGPEWVSVIYADGRRTFYGDSVKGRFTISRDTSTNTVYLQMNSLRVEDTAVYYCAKGRTAGTFDTWGQGTLVTVSS", "log10 Kd, replicates": "-0.06 -0.29 -0.38 -0.69 -0.54 -0.14", "signal with controls": "0 of 18"}
{"VH": "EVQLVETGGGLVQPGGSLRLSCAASGFQLNSYGISWVRQAPGKGPEWVSVIYSDGRRTFYGDSVKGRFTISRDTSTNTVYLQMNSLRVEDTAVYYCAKGKTAGTFDFWGQGTLVTVSS", "log10 Kd, replicates": "1.27 1.57 ND 0.98 1.97 1.53", "signal with controls": "0 of 18"}
{"VH": "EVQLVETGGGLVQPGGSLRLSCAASGFKLNSYGISWVRQAPGKGPEWVSVIYSDGRRTFYGDSVKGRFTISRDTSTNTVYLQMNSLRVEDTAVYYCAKGQTAGTFDLWGQGTLVTVSS", "log10 Kd, replicates": "ND 1.84 ND 1.37 1.28 0.48", "signal with controls": "0 of 18"}
{"VH": "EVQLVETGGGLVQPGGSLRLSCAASGFTLNSYGISWVRQAPGKGPEWVSVIYSDGMRTFYADSVKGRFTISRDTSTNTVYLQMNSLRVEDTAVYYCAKGRTAGTFWSWGQGTLVTVSS", "log10 Kd, replicates": "ND ND ND ND ND ND", "signal with controls": "0 of 18"}
{"VH": "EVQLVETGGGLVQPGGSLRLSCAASGFSLNEYGISWVRQAPGKGPEWVSVIYSDGRRTFYGDRVKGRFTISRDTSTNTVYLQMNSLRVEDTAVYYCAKGQAAGTFDSWGQGTLVTVSS", "log10 Kd, replicates": "0.02 -0.08 0.03 0.06 -0.11 0.25", "signal with controls": "0 of 18"}
{"VH": "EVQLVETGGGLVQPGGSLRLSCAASGFTLNSYGISWVRQAPGKGPEWVSVIYSDGRRTFYGDAVKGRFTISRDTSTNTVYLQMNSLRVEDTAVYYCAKGQTAGTFDSWGQGTLVTVSS", "log10 Kd, replicates": "0.89 1.25 1.20 1.10 1.33 1.14", "signal with controls": "1 of 18 (3.32)"}
{"VH": "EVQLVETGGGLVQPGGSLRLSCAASGFGLNSYGISWVRQAPGKGPEWVSVIYSDGRRTFYADSVKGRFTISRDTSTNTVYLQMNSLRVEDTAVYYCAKGSEAGTFDSWGQGTLVTVSS", "log10 Kd, replicates": "0.00 -0.10 -0.06 -0.56 -0.78 -0.41", "signal with controls": "0 of 18"}
{"VH": "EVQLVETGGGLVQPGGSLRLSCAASPFDLNSYGISWVRQAPGKGPEWVSVIYSDGRRTAYGDSVKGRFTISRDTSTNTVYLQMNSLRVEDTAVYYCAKGRTAGTFDSWGQGTLVTVSS", "log10 Kd, replicates": "-0.10 -0.15 -0.20 -0.16 0.00 0.49", "signal with controls": "0 of 18"}
{"VH": "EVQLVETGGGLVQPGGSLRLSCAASSFELNSYGISWVRQAPGKGPEWVSVIYSDGRRTFYTDSVKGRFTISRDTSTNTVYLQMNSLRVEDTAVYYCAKGQTAGTFDSWGQGTLVTVSS", "log10 Kd, replicates": "1.38 ND 1.13 0.92 2.77 ND", "signal with controls": "1 of 18 (1.23)"}
{"VH": "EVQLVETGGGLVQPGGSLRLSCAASKFSLNSYGISWVRQAPGKGPEWVSVIYSDGRRTFYADSVKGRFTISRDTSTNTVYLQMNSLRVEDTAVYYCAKGRTAGTFDKWGQGTLVTVSS", "log10 Kd, replicates": "ND ND ND ND ND ND", "signal with controls": "0 of 18"}
{"VH": "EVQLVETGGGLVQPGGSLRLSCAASGFTLNSYGISWVRQAPGKGPEWVSVIYSDGRRTFYADDVKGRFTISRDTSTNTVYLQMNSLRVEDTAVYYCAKGRAAGTFDSWGQGTLVTVSS", "log10 Kd, replicates": "0.98 1.78 ND ND ND 0.38", "signal with controls": "0 of 18"}
{"VH": "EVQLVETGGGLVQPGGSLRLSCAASGFTLESYGISWVRQAPGKGPEWVSVIYSDGRRTFYGDSVKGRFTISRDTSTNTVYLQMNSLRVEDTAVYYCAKGHVAGTFDSWGQGTLVTVSS", "log10 Kd, replicates": "0.35 0.87 -0.02 0.37 0.09 0.54", "signal with controls": "0 of 18"}
{"VH": "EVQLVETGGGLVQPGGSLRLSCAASGFSLNSYGISWVRQAPGKGPEWVSVIYSDGRRTFYQDSVKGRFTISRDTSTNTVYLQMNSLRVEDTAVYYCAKGSVAGTFDSWGQGTLVTVSS", "log10 Kd, replicates": "0.22 -0.16 -0.08 -0.06 -0.27 0.04", "signal with controls": "0 of 18"}
{"VH": "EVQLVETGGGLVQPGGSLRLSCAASGFSLNEYGISWVRQAPGKGPEWVSVIYSDGRRTFYGDRVKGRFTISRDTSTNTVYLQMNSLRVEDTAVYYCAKGRTAGTFVSWGQGTLVTVSS", "log10 Kd, replicates": "ND 2.01 2.59 1.94 2.13 2.70", "signal with controls": "1 of 18 (1.91)"}
{"VH": "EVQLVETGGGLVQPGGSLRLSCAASGFNLNSYGISWVRQAPGKGPEWVSVIYSDGRRTFYQDRVKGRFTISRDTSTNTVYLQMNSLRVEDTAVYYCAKGQVAGTFDSWGQGTLVTVSS", "log10 Kd, replicates": "2.01 1.05 1.18 2.52 1.73 0.78", "signal with controls": "0 of 18"}
{"VH": "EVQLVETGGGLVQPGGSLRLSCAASGFDLNSYGISWVRQAPGKGPEWVSVIYSDGRRTFYSDRVKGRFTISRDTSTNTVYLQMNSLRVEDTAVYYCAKGEAAGTFDKWGQGTLVTVSS", "log10 Kd, replicates": "0.79 0.89 0.81 0.79 1.18 0.68", "signal with controls": "0 of 18"}

Top 2 of the variants detected in all replicates, tightest first:

VH	log10 Kd, replicates	signal with controls
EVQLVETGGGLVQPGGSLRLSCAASGFTLNEYGISWVRQAPGKGPEWVSVIYADGRRTFYGDSVKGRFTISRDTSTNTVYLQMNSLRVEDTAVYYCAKGRTAGTFDTWGQGTLVTVSS	-0.06 -0.29 -0.38 -0.69 -0.54 -0.14	0 of 18
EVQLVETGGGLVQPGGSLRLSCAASGFGLNSYGISWVRQAPGKGPEWVSVIYSDGRRTFYADSVKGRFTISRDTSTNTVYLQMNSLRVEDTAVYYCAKGSEAGTFDSWGQGTLVTVSS	0.00 -0.10 -0.06 -0.56 -0.78 -0.41	0 of 18